In patent US10941115B2, “Kinase inhibitors” (Oxular Acquisitions Limited, priority 2014, dated 2021):

Tested on: non-mutant kinases
Format: binding
Conditions: 50 nM
Excerpt: These assays may be conducted by DiscoverX (formerly Ambit; San Diego, Calif.).

Structure (SMILES): COc1cc(Nc2cc(Oc3ccc(NC(=O)Nc4cc(C(C)(C)C)cc(NS(C)(=O)=O)c4OC)c4ccccc34)ccn2)ccc1P(C)(=O)O [Example 44, (4-((4-((4-(3-(5-(tert-Butyl)-2-methoxy-3-(methylsulfonamido)phenyl)ureido)naphthalen-1-yl)oxy)pyridin-2-yl)amino)-2-methoxyphenyl)(methyl)phosphinic acid]
- KinomeScan Selectivity Score S(1) (fraction of non-mutant kinases with % Ctrl <1): 0.002
- KinomeScan Selectivity Score S(10) (fraction of non-mutant kinases with % Ctrl <10): 0.074
